{"sequences": {"note": "Protein sequences, listed by entry. Tags and fused reporters are not part of them. Lines headed by an entry give the natural chain unless they say otherwise; changes in a name come on top.", "UniProt P28075": "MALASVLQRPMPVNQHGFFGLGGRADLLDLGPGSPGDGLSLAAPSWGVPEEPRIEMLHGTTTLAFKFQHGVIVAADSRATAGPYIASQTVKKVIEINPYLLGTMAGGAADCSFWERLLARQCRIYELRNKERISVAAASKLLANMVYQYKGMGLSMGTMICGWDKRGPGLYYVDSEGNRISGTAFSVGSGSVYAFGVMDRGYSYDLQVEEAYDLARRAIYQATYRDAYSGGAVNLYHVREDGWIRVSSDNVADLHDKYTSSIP"}, "source": "patent US20020049157A1", "about": "“Use of proteasome inhibitors for treating cancer, inflammation, autoimmune disease, graft rejection and septic shock” (priority 1998, published 2002)", "target": "20S proteasome (Rattus norvegicus, UniProt P28075)", "assay": "Inhibition of chymotrypsin-like activity of 20S proteasome by DPBA (sLLVY-MCA)", "type": "biochemical", "design": "The 20S proteasome was purified from rat liver as described in the applicant's previous publication; from tissue; host or cells: rat liver", "conditions": "20S proteasome from rat liver, 37° C. 30 min, read-out: IC50 for the inhibition of the chymotrypsin-like enzyme", "procedure": "The 20S proteasome was purified from rat liver as described in the applicant's previous publication (1996, supra). A fluorogenic peptide sLLVY-MCA was used as a chymotrypsin substrate. DPBA of different concentrations was added into the reaction mix, and incubated at 37° C. for 30 min. The relative fluorescent intensity, which reflects the chymotrypsin-like enzymatic activity of the 20S proteasome, was measured with a fluorometer using excitation/emission wavelengths of 380 nm/440 nm."}
{"smiles": "CC(C)C[C@H](NC(=O)[C@H](Cc1ccccc1)NC(=O)c1cnccn1)B(O)O", "note": "[DPBA, Pyz-Phe-boroLeu]", "values": [{"measurement": "IC50", "result": "~0.02", "unit": "µM"}]}
